Measurements taken from patent EP1382597A2, “Steroid receptor modulator compounds and methods” (LIGAND PHARMACEUTICALS, INC., priority 1994, dated 1996).

Target: T1, AR (Rattus norvegicus, UniProt P15207)
T1 construct: from tissue; host or cells: live Sprague-Dawley rats; ventral prostate and seminal vesicles weighed
T1 sequence (P15207 1-902): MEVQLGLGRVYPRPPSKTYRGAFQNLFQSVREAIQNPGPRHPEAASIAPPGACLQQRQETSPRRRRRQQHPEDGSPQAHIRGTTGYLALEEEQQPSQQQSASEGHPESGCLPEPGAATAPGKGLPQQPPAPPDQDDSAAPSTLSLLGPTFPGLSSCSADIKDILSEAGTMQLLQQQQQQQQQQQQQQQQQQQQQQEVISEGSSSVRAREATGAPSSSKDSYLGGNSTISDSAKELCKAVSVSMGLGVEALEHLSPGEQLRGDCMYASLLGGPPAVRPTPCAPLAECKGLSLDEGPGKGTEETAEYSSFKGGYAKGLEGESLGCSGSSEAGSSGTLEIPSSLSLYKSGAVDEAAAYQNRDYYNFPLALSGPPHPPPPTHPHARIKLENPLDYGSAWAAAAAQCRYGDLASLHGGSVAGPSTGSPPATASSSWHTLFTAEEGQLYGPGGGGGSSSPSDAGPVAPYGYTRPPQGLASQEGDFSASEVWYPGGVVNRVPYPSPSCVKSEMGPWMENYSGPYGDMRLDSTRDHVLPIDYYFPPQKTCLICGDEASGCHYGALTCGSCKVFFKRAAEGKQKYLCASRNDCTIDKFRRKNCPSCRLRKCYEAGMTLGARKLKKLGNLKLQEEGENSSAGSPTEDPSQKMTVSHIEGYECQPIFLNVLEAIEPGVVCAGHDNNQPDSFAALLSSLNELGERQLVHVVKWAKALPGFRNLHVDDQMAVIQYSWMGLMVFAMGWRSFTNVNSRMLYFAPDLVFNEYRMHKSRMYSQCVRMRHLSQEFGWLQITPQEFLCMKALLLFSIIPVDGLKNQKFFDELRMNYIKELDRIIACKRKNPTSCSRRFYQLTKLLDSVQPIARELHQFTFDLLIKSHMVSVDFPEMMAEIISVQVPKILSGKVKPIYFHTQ
Experiment: Immature castrated male rat model (antiandrogen activity)
Type: in vivo, rats (Sprague-Dawley)
Conditions: TP versus free testosterone

SMILES: CCC(=O)O[C@H]1CC[C@H]2[C@@H]3CCC4=CC(=O)CC[C@]4(C)[C@H]3CC[C@]12C [TP, Testosterone Propionate]
- potency relative to free T: 10-30 fold
